Patent US8389512B2 (priority 2008, dated 2013)

Assay: 4 hr in-vivo study: meloxicam plasma concentration after oral delivery to rats
Conditions: rat

**Q.** For `Cc1cnc(NC(=O)C2=C(O)c3ccccc3S(=O)(=O)N2C)s1.O=C(O)CC(=O)O` [Cocrystal 22, Meloxicam:Malonic Acid Cocrystal (1:1)], which meloxicam plasma concentration (time 240 min) is on record?
**A.** Its meloxicam plasma concentration is 29.23 µg/mL.

**Q.** For `Cc1cnc(NC(=O)C2=C(O)c3ccccc3S(=O)(=O)N2C)s1.O=C(O)c1ccc2ccccc2c1O` [Cocrystal 76, Meloxicam: 1-Hydroxy-2-Naphthoic Acid Cocrystal (1:1)], which meloxicam plasma concentration (time 15 min) is on record?
**A.** The meloxicam plasma concentration was 22.41 µg/mL.

**Q.** For `Cc1cnc(NC(=O)C2=C(O)c3ccccc3S(=O)(=O)N2C)s1.Cc1cnc(NC(=O)C2=C(O)c3ccccc3S(=O)(=O)N2C)s1.O=C(O)CCC(=O)O` [Cocrystal 144, Meloxicam:Succinic Acid Cocrystal (2:1)], which meloxicam plasma concentration (time 30 min) is on record?
**A.** Its meloxicam plasma concentration is 22.43 µg/mL.
